Assay results from patent US9463173B2, “Compositions and methods for treating obesity and obesity-related conditions” (THE JOHNS HOPKINS UNIVERSITY, priority 2014, dated 2016).

Chains of the proteins cited; added tags and fusions are not shown.
UniProt Q13547, whole entry: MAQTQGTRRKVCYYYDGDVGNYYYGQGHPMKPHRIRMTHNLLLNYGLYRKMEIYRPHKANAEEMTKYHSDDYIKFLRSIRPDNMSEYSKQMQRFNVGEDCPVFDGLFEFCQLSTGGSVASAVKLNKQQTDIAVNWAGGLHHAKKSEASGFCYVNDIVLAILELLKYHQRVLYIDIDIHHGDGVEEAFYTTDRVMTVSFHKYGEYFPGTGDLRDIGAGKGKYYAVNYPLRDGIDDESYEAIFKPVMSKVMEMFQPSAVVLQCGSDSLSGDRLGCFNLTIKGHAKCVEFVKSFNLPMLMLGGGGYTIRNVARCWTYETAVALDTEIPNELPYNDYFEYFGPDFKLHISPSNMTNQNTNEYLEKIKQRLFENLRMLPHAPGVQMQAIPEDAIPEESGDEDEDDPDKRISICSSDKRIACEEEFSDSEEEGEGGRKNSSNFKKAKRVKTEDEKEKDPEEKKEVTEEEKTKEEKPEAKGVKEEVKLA

Biological target: human recombinant HDAC1 (Homo sapiens, UniProt Q13547)
Test: HDAC activity fluorometric assay, recombinant HDAC1
Assay type: biochemical
Conditions: 800 mM VPA; 1 mM TSA; 20 mM metabolites; mean ± S.D.

- deacetylation: 28.9±5.5%
SMILES: CC(/C=C/C(=O)NO)=C\[C@@H](C)C(=O)c1ccc(N(C)C)cc1 [TSA, trichostatin A]
